Measured affinities in a library of Ab-91 heavy chain variants

Reference: Engelhart et al. 2022, doi:10.1038/s41597-022-01779-4. File: FLAb, binding data.

Target: peptide PDVDLGDISGINAS, taken from heptad repeat 2 (HR2) of SARS-CoV-2 spike.

Ab-91 is the parent antibody, in scFv form: VL, then the linker GGGGSGGGGSGGGGS, then VH. The light chain is unchanged in all variants.
VL: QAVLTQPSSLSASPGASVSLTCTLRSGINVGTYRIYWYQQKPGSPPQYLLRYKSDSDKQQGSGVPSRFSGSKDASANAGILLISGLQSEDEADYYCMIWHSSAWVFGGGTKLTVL
VH: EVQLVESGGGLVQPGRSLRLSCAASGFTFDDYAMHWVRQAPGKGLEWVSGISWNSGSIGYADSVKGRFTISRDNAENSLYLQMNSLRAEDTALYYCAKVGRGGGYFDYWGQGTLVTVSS

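Variants in AAYL51 differ from the parent at up to three CDR positions; double and triple changes were sampled at random. Affinity was read by AlphaSeq, a pooled yeast mating assay with surface-displayed partners. Pairs that bind mate more often; barcode pairs of the diploids are counted by sequencing. Scores were corrected for input abundance and mapped to Kd with protein pairs of known affinity run in the same pool. Each pool was mated in three replicate cultures.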

Substitutions are numbered in sequence along the VH above, starting at 1 (not Kabat). Values are log10 of the apparent Kd in nM; lower means stronger binding. "nd" marks a missing value. The strain was present, yet no cells mated with the target were sequenced in that replicate, which points to weak or no binding. As a blank, each scFv also met three strains without target: over library AAYL51, 21% of these pairings were detected, typically at 4.54 and seldom below 3.26. For each scFv, signals with the empty controls are counted beside the result. In this assay the parent's reference entry averaged 1.86; its copy inside this library read 0.88.

A33P+G100Q: 5.16, 6.04, 3.64 (controls 1 of 9).
T28M+G104W+F106E: 3.14, 3.29, 2.94 (controls 7 of 9).
F29N+G104V+Y108N: nd, 4.53, 4.75 (controls 5 of 9).
F27W+F29V+I51F: nd, nd, nd (controls 3 of 9).
T28I+S52Y+G103F: nd, nd, nd (controls 0 of 9).
A33M+M34P+R101H: 4.77, 4.51, 5.66 (controls 5 of 9).
G26R+D30I+R101W: nd, nd, nd (controls 0 of 9).
F27Y+G50I+S63D: nd, nd, nd (controls 0 of 9).
G26E+T28G+I58A: nd, nd, nd (controls 1 of 9).
G50T+I51P+S52Q: nd, nd, nd (controls 0 of 9).
T28R+G50Y+W53M: nd, nd, nd (controls 0 of 9).
Y32A+N54E+G102A: nd, nd, nd (controls 2 of 9).
F27E+S57D+G100L: nd, nd, nd (controls 1 of 9).
I58V+Y108R: 0.86, 0.83, 0.06 (controls 5 of 9).
S57Y+K65Q+F106P: nd, nd, nd (controls 1 of 9).
D31N+I51G+N54P: nd, 5.00, nd (controls 3 of 9).
G50D: 3.88, 4.89, nd (controls 1 of 9).
M34V+A61S+D107F: nd, nd, nd (controls 0 of 9).
G26K+Y105T: 4.64, 4.16, nd (controls 2 of 9).
H35M+V99W+G103T: nd, nd, nd (controls 1 of 9).
D30F+K65E+V99A: 5.06, nd, nd (controls 0 of 9).
G56F+K65H+G104E: 2.45, 2.27, 1.63 (controls 4 of 9).
K65T+G102I+Y105W: 1.72, 1.24, 0.96 (controls 0 of 9).
D31G+G50P+G59H: nd, nd, nd (controls 0 of 9).
Y32W+W53P+K65Y: 2.23, 2.57, 2.05 (controls 1 of 9).
I58L+D107Y: nd, nd, nd (controls 0 of 9).
G59A+A61Y+V64C: nd, nd, nd (controls 1 of 9).
A33T+S57V+S63G: 3.98, nd, nd (controls 3 of 9).
Y32M+V64C: 3.79, 4.18, 3.95 (controls 8 of 9).
S55Q+S63D+G104T: 4.96, nd, nd (controls 3 of 9).
G26P+M34D: nd, nd, nd (controls 0 of 9).
N54G+S63Y+G102L: nd, nd, nd (controls 1 of 9).
I58N+Y60P+R101D: nd, 4.34, 4.78 (controls 4 of 9).
I58V+G59L+R101S: nd, nd, nd (controls 0 of 9).
G26I+S55W+G103V: nd, nd, nd (controls 0 of 9).
A33Q+I51M+K65Y: nd, 2.15, nd (controls 1 of 9).
F29Q+R101D+Y105S: nd, nd, nd (controls 6 of 9).
H35Q+S55R+D107V: 4.39, 4.89, nd (controls 2 of 9).
H35I+W53P+Y60S: 5.50, 5.04, 4.38 (controls 1 of 9).
F27D+H35N+I51M: 2.48, 1.79, 1.55 (controls 1 of 9).
D31E+K65Y+G100T: 5.11, nd, 3.54 (controls 2 of 9).
S52W+G103E: nd, nd, nd (controls 2 of 9).
S55A+Y60D+V99P: nd, nd, nd (controls 0 of 9).
G26R+Y60G+R101W: nd, nd, nd (controls 5 of 9).
F27L+W53P+D107K: nd, nd, nd (controls 2 of 9).
G26A+Y105G+D107R: 1.61, 1.85, 1.48 (controls 2 of 9).
H35W+W53M+G56P: nd, nd, nd (controls 1 of 9).
A33L+V99N: 0.93, 1.11, 0.74 (controls 0 of 9).

A selection of 4 entries from above:

{"changes": "H35M+V99W+G103T", "log10 Kd (nM) by replicate": "nd, nd, nd", "empty controls": "1/9"}
{"changes": "G50D", "log10 Kd (nM) by replicate": "3.88, 4.89, nd", "empty controls": "1/9"}
{"changes": "I58V+Y108R", "log10 Kd (nM) by replicate": "0.86, 0.83, 0.06", "empty controls": "5/9"}
{"changes": "T28M+G104W+F106E", "log10 Kd (nM) by replicate": "3.14, 3.29, 2.94", "empty controls": "7/9"}